The source of these data is PubChem BioAssay AID651572 (The Scripps Research Institute Molecular Screening Center, 2012).

Protein sequences, listed by entry. Tags and fused reporters are not part of them. Residues count along the entry.
UniProt Q62848, 1-136 limits assumed: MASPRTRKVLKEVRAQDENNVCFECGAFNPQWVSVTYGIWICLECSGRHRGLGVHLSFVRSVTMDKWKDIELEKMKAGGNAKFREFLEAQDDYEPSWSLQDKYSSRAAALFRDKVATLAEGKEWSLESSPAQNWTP

The entries are a selection whose mix differs from that of the whole data set. Active and inactive are the calls of the source.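 Rule for the calls: active = inhibition above a per-plate limit, mean inhibition of low control wells plus 3 SD (cut at about 25% in these data); inactive = the rest.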

Usually inhibition stands for the change of the read-out against control, counted positive when it falls.

The test addresses ADP-ribosylation factor GTPase-activating protein 1 (Rattus norvegicus) (UniProt Q62848). Put plainly: inhibitors of rat ARFGAP1 GAP activity, primary screen, biochemical, fluorescence polarization, GDP tracer (AID 651572).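 Note: 0% = DMSO wells with enzyme and 100% = wells lacking Arfgap1.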 To be noted: Arfgap1-stimulated ARF1 GTP hydrolysis, GDP FP detection; at 16.5 µM; active compounds read high. A digest of the protocol:
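Assay system: purified rat His6-Arfgap1 residues 1-136 (GAP domain); Reagent: human Δ17 ARF1 bound to GTP; Dosing: 16.5 µM single point, 1.26% DMSO; Times: GTP hydrolysis reaction 2 h at 25 °C; Signal: FP, GDP Alexa 633 tracer displaced from anti-GDP antibody, 620/688 nm; Measure: % inhibition from polarization.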
As to `O=C(NCC1(N2CCCCC2)CCCCC1)c1cccc([N+](=O)[O-])c1`, the inhibition was inactive: 5.3%.
In the case of `CSc1ccc(C(=O)NCC2(N3CCOCC3)CCCCC2)cc1` it was inactive: -1.15%; in that of `O=C(NCC1(N2CCCCC2)CCCCC1)c1cccc(C(F)(F)F)c1`, inactive: -1.32%; in that of `COc1cc(C(=O)NCC2(N3CCCCC3)CCCCC2)ccc1OC(F)F`, inactive: -4%.
In the case of `O=C(NCC1(N2CCOCC2)CCCCC1)c1cc(=O)[nH]c2ccccc12` it was inactive: 10.5%; in that of `CCCCn1nnnc1C(c1cccc2ccccc12)N1CCC(n2c(=O)[nH]c3ccccc32)CC1` (stereo unspecified), inactive: -10%; in that of `CN1CCN(CCOC(=O)C(O)(c2ccccc2)c2ccccc2)CC1`, inactive: -6%.
The result for `CC(C)c1ccc(C(=O)NCC2(N3CCOCC3)CCCCC2)cc1` reads inactive: -0.29%; that for `COc1ccc(NC2CCN(C(=O)OC(C)(C)C)CC2)cc1`, inactive: -2.15%.
For `CC(C)c1ccc(NC2CCN(C(=O)OC(C)(C)C)CC2)cc1`, the inhibition is inactive: -0.89%.
For `COc1ccc(CN(CCCl)CCCl)cc1Cl`, the inhibition was inactive: -0.71%.
The result for `CN(C)c1cccc(C(=O)NCC2(N3CCCCC3)CCCCC2)c1` reads inactive: 14.6%; that for `COc1cc(OC)c(C(=O)NCC2(N(C)C)CCCCC2)cc1OC`, inactive: 3.9%; that for `CCC(c1nnnn1C(C)(C)C)N1CCC(n2c(=O)[nH]c3ccccc32)CC1` (stereo unspecified), inactive: 2.13%.
The result for `O=C(NCC1(N2CCOCC2)CCCCC1)c1cc(F)c(F)cc1Cl` reads inactive: 2.58%; that for `CCCCn1nnnc1C(c1ccnc2ccccc12)N1CCC(n2c(=O)[nH]c3ccccc32)CC1` (stereo unspecified), inactive: 1.66%.
In the case of `O=C(NCC1(N2CCCCC2)CCCCC1)c1cncc(Br)c1` it was inactive: -0.34%.
As for `CN1CCC(Nc2cccc(F)c2)CC1`, the inhibition is inactive: 15.6%.
Consider `COc1ccc(C(c2nnnn2C2CCCC2)N2CCC(n3c(=O)[nH]c4ccccc43)CC2)cc1` (stereo unspecified), for which the inhibition was inactive: 15.6%.
As for `Cc1ccc(C(=O)NCC2(N(C)C)CCCCC2)o1`, the inhibition was inactive: -3.16%.
The result for `CCCOc1ccc(C(=O)NCC2(N(C)C)CCCCC2)cc1OC` reads inactive: 4.54%.
